# Experimental data reported in patent US20250170254A1, “Subdermal Implant for Sustained Drug Delivery” (OAK CREST INSTITUTE OF SCIENCE, priority 2022, published 2025).
# How the values were obtained:
# [1] = In vitro BSA release through ePTFE membranes into 1×PBS (FIG. 37B); conditions: depot of 33% w/v BSA in monoolein
substance,measurement,setting,value
bovine serum albumin [BSA],release from ePTFE implant,"100% BSA powder, no excipients, over 28 d, 37° C.",did not appreciably release
same,release rate (slope of linear regression),"BSA 30% w/w paste with monoolein 70% w/w, over 8 d",1.7 mg/day
same,release profile from ePTFE implant,"BSA 30% w/w paste with monoolein 70% w/w, over 8 d, 37° C.",released linearly
same,time to release BSA payload,"BSA 50% w/w with D-(+)-trehalose 45% w/w and L-histidine hydrochloride 5% w/w, 37° C.",≤ 2 days
same,BSA release rate,"[1]; 0.17 mm, sintered ePTFE",0.24 mg/day
same,BSA release rate,"[1]; unsintered, 0.24 mm ePTFE",0.75 mg/day
